{"source": "the RepoRT retention time repository (doi:10.1016/j.jhazmat.2019.121712)", "assay": "Thermo Scientific Acclaim RSLC 120 C18, 100 × 2.1 mm, 2.2 µm, 30 °C; A: 90% water + 10% methanol + 0.01% formic acid + 5 mM ammonium formate; B: methanol + 0.01% formic acid + 5 mM ammonium formate; gradient (min/%B) 0.1/1 3/39 14/99.9 16/99.9", "details": "stereoisomer not certain"}
{"compound": "CCOP(=S)(OCC)Oc1ncn(-c2ccccc2)n1", "values": [{"measurement": "LC retention time", "result": 9.9, "unit": "min"}]}
